# Reference: article PMC6711705, “Tailored tetravalent antibodies potently and specifically activate Wnt/Frizzled pathways in cells, organoids and mice” (eLife, 2019)
# Experiments:
# Conditions in all cases: both partners purified
# [1] = target: T1, Fc-tagged ECD fusion protein of human LRP6 (Homo sapiens, UniProt O75581); assay: BLI; epitope binning: LRP6-Fc immobilised on AR2G sensors, saturated with 100 nM Ab, then 100 nM competing Ab; PBS, 1% BSA, 0.05% Tween20; 25 °C
# T1 construct: LRP6, human, extracellular domain (ECD); also called LRP6-Fc; LRP6 ECD; source: bought: R and D Systems
# Fc-tagged FZD2 CRD = target: T2, Fc-tagged FZD2 CRD (Homo sapiens, UniProt Q14332); assay: SPR; soluble F^P Fab or IgG injected over FZD-Fc immobilised on a GLC sensor by amine coupling; PBS, 0.05% Tween20, 0.5% BSA; 25 °C; 1:1 Langmuir model, global fit
# T2 construct: Frizzled-2, human, cysteine rich domain (CRD); also called FZD2-Fc; source: bought: R and D Systems
# Fc-tagged FZD7 CRD = target: T3, Fc-tagged FZD7 CRD (Homo sapiens, UniProt O75084); assay: as above
# T3 construct: Frizzled-7, human, cysteine rich domain (CRD); also called FZD7-Fc; source: bought: R and D Systems
# Fc-tagged FZD1 CRD = target: T4, Fc-tagged FZD1 CRD (Homo sapiens, UniProt Q9UP38); assay: as above
# T4 construct: Frizzled-1, human, cysteine rich domain (CRD); also called FZD1-Fc; source: bought: R and D Systems
# Fc-tagged FZD4 CRD = target: T5, Fc-tagged FZD4 CRD (Homo sapiens, UniProt Q9ULV1); assay: as above
# T5 construct: Frizzled-4, human, cysteine rich domain (CRD); also called FZD4-Fc; source: bought: R and D Systems
binding result [1],binding result (Fc-tagged FZD2 CRD),binding result (Fc-tagged FZD7 CRD),binding result (Fc-tagged FZD1 CRD),binding result (Fc-tagged FZD4 CRD),Binder
binds,,,,,"L6^3 IgG (antibody, V domains shown) VH: EVQLVESGGGLVQPGGSLRLSCAASGFNISYSSIHWVRQAPGKGLEWVAYISSYYGYTYYADSVKGRFTISADTSKNTAYLQMNSLRAEDTAVYYCARAHYFPWAGAMDYWGQGTLVTVSS VL: DIQMTQSPSSLSASVGDRVTITCRASQSVSSAVAWYQQKPGKAPKLLIYSASSLYSGVPSRFSGSRSGTDFTLTISSLQPEDFATYYCQQYSWGPFTFGQGTKVEIK"
,binds,binds,binds,binds,"F^P IgG (antibody, V domains shown) VH: EVQLVESGGGLVQPGGSLRLSCAASGFNIGSSSIHWVRQAPGKGLEWVASIYSAFASTSYADSVKGRFTISADTSKNTAYLQMNSLRAEDTAVYYCARYHFPFGFALDYWGQGTLVTVSS VL: DIQMTQSPSSLSASVGDRVTITCRASQSVSSAVAWYQQKPGKAPKLLIYSASSLYSGVPSRFSGSRSGTDFTLTISSLQPEDFATYYCQQGVYLFTFGQGTKVEIK"
binds,,,,,"L6^1 IgG (antibody, V domains shown) VH: EVQLVESGGGLVQPGGSLRLSCAASGFNISSYYIHWVRQAPGKGLEWVASIYSSYGYTSYADSVKGRFTISADTSKNTAYLQMNSLRAEDTAVYYCARTVRGSKKPYFSGWAMDYWGQGTLVTVSS VL: DIQMTQSPSSLSASVGDRVTITCRASQSVSSAVAWYQQKPGKAPKLLIYSASSLYSGVPSRFSGSRSGTDFTLTISSLQPEDFATYYCQQYYWPITFGQGTKVEIK"
